## Antibody variant affinities, Ab-91 heavy chain, assay 2

Data: MIT Lincoln Laboratory AlphaSeq set, Engelhart et al. 2022, doi:10.1038/s41597-022-01779-4, as distributed in FLAb.

The target is the same throughout: PDVDLGDISGINAS, from the HR2 region of SARS-CoV-2 spike.

Parent: Ab-91, a human scFv built as VL, a (GGGGS)3 linker, VH. Only the CDRs of the heavy chain vary.
VL: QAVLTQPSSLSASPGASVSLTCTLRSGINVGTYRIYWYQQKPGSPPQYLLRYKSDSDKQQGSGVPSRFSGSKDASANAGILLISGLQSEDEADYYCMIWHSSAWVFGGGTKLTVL
VH: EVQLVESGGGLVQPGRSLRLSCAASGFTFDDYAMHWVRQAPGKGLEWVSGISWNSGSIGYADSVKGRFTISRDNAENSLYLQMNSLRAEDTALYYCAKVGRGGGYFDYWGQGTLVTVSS

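Phage display of a naive human antibody library on the peptide gave the parent. In library AAYL51, one, two or three CDR residues were substituted; doubles and triples were drawn at random. The assay is AlphaSeq: two haploid yeast populations carry antibody and antigen on their surface. Binding brings cells together so that they mate, and sequencing counts the barcode pairs among the diploids. Read counts were normalised to the haploid input and turned into Kd by a linear fit to BCL2-family pairs of known affinity, for each replicate. The assay was run in three technical replicates.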

Variants are written as CDR1, CDR2 and CDR3 of the heavy chain (limits as in the source). Parent: GFTFDDYAMH, GISWNSGSIGYADSVK, VGRGGGYFDY. Scale: log10 of Kd in nM, estimated from mating counts; low values are strong binders. "ND" marks a missing value. The strain was present, yet no cells mated with the target were sequenced in that replicate, which points to weak or no binding. Background: pairings of library AAYL51 with three empty control strains gave a value in 21% of cases (median 4.54, 5th percentile 3.26). Values in that range, when seen in few replicates, are hard to tell from nonspecific mating. For each scFv, signals with the empty controls are counted beside the result, with their mean in brackets.

CDR-H1,CDR-H2,CDR-H3,"log10 Kd, replicates",empty controls
GFTFDDYAMH,WISWNSGSIGYADSVW,VGRGGYYFDY,ND / ND / 3.76,1 of 9 (2.94)
GFTFDFYAMH,GISWNSGSIGYADSVL,VGRGGGYFDQ,0.96 / 0.83 / 0.43,1 of 9 (2.73)
GFTFDDDAMH,GISWNSGSIGYASSVK,VGRQGGYFDY,ND / ND / ND,3 of 9 (4.64)
GKTFDDYAMH,GISWNSGSCGYADSVK,VGRGGMYFDY,ND / ND / ND,0 of 9
GFTFDDYAMH,GISLNSGSIGYADSVK,GGIGGGYFDY,1.45 / 1.39 / 0.91,2 of 9 (5.06)
GFTFDDYAHH,GISWNSGSIHYADSVK,VGIGGGYFDY,4.43 / 4.56 / 5.76,5 of 9 (4.70)
GFVFDTYAMH,GLSWNSGSIGYADSVK,VGRGGGYFDY,ND / ND / ND,1 of 9 (2.29)
GFTFDDIAMH,GISWNSGSIGYNPSVK,VGRGGGYFDY,ND / ND / ND,0 of 9
GFSFDDYAIH,GINWNSGSIGYADSVK,VGRGGGYFDY,ND / ND / ND,0 of 9
GFTFDDYAML,GISYNSGSIGYADSVK,VGRGMGYFDY,ND / ND / 3.51,1 of 9 (3.56)
DFTFDDYAMH,GISWNSGSSGYADSFK,VGRGGGYFDY,4.68 / 4.62 / 3.60,4 of 9 (4.58)
GFTFDDYAMH,GISWNAGSIGDADSVK,VHRGGGYFDY,ND / ND / ND,0 of 9
GFTFDDYAMH,GISWNSGSIGYADSVK,AGRGGGYFDY,4.61 / 4.50 / ND,2 of 9 (4.50)
GFTFDYYPMH,GISWNSGTIGYADSVK,VGRGGGYFDY,2.78 / 3.80 / 2.89,0 of 9
GFTFDGYAMH,GISWNSGSIGYADVVK,VGRGGGHFDY,ND / ND / ND,0 of 9
GFTFDDYAMH,GISWNSGSIGYADRVQ,VGRGGGPFDY,1.31 / 1.31 / 0.83,4 of 9 (4.36)
GFTFDDRAMH,GISWNSGSIGYADYVK,VGRGGGYFDY,4.21 / ND / ND,1 of 9 (4.65)
GFTFDDYWMH,GISWQSGSIGYADDVK,VGRGGGYFDY,ND / ND / ND,0 of 9
GFTFDRYAMH,GISWNLGSIGYADSVK,VGRGGGYFDY,1.99 / 2.24 / 1.75,1 of 9 (4.21)
GFTFDDYAMH,GISWNSGSIYYASSVK,VGRGGGNFDY,ND / ND / ND,0 of 9
GFTVDDYAMH,GISWNSGYIGYADSVK,VGRGGGYFDY,ND / ND / ND,1 of 9 (4.64)
GFTFKDYAMH,GISWNSGSLGVADSVK,VGRGGGYFDY,2.59 / 2.43 / 2.92,2 of 9 (4.40)
GFTLDDYAMH,GISWNSGSIGYADWVK,NGRGGGYFDY,3.46 / 4.06 / 3.86,6 of 9 (4.46)
GITFDDYAMH,GISWNSGNIGYATSVK,VGRGGGYFDY,ND / ND / ND,4 of 9 (3.96)
GFTFDDYAMH,GISWNSTSIGYADSVK,EGYGGGYFDY,ND / ND / ND,1 of 9 (3.21)
GFTFDDYAMH,GISWNSGSIGYNQSVK,VGRGGGYSDY,2.84 / ND / ND,2 of 9 (3.43)
GFTFDDYAMH,GISWNSWSIGYADEVK,VGRGGGYFDT,0.65 / 0.72 / 0.11,1 of 9 (3.46)
QFTFDDYAWH,GISWNSGSIGYQDSVK,VGRGGGYFDY,4.28 / ND / ND,0 of 9
GFTFDDYAMH,GISWNSGSLGYADEVK,VGRGGGYFDP,ND / ND / ND,0 of 9
GFKFDDYAMH,GISWNSGPIGYADSVK,TGRGGGYFDY,6.42 / 4.63 / ND,2 of 9 (5.10)
GFTFDDIAMH,GISWLSGSIGYADGVK,VGRGGGYFDY,ND / ND / ND,1 of 9 (3.58)
GFTFDDYAMH,GISWNSGSIGYALSFK,VGRGGGYFGY,4.53 / 4.09 / ND,2 of 9 (5.10)
GFTFDDYAMH,GISWNSGSIGHIDSVH,VGRGGGYFDY,5.43 / 5.45 / ND,7 of 9 (5.22)
GFTLDDYAMT,GISWNSGSIGYADSVK,VGRGGPYFDY,ND / ND / ND,1 of 9 (3.31)
GFQFDDYAMH,GISWGSGSIGYADSVK,VGRGGLYFDY,ND / ND / ND,1 of 9 (1.58)
GFTFDDYDMH,GISWNSGSIGYTCSVK,VGRGGGYFDY,4.60 / ND / ND,0 of 9
GFTFDVYAMH,GISWNSGSIGYADMVK,VGRGGGYFDY,1.01 / 0.98 / 0.56,9 of 9 (4.77)
GFTFRDYAMH,GISWNSGSIGYADSVK,VGRGGGYFDE,0.88 / 0.84 / 0.28,7 of 9 (5.06)
GFTFDDYAMH,GGSWNSGSIGYAQSVK,PGRGGGYFDY,ND / ND / ND,1 of 9 (3.40)
GFTFLDIAMH,GISWNSGSIGYADSVK,HGRGGGYFDY,ND / ND / ND,0 of 9
GFTFDDYAYD,GISWNSGSIGYADSYK,VGRGGGYFDY,ND / ND / ND,0 of 9
GFIQDDYAMH,GISWASGSIGYADSVK,VGRGGGYFDY,5.05 / 6.24 / ND,2 of 9 (4.59)
GFTFDDYAMH,GSAWNSGSIGYADSVK,VGRGGGQFDY,ND / ND / ND,0 of 9
GFTFDEYAMH,GISWNSGSIGYAIIVK,VGRGGGYFDY,ND / ND / ND,0 of 9
GFTFDDYAMH,GISWNNGSIGYADYVK,VGRGSGYFDY,ND / ND / ND,0 of 9
GFTFIDYAMH,GISWNSGSIGYADAVK,VGRHGGYFDY,3.27 / 3.34 / 2.80,1 of 9 (3.85)
GFTFDDYAMH,GISWNSGKIGYADAVK,VGRGGGYFDY,4.54 / 4.34 / 4.51,3 of 9 (3.98)
GFTFDDYYMH,GISWNSGSIGYADSKK,VGRGGGYFDY,ND / ND / ND,0 of 9
GFTFDDGAMH,GSSWNSGSIGYADSVK,VGHGGGYFDY,4.35 / 5.17 / ND,4 of 9 (4.75)
GFTFIDVAMH,GISWNSGSIGYADSVL,VGRGGGYFDY,3.33 / 2.59 / 3.81,1 of 9 (5.39)

A selection of 6 entries from above:

{"CDR-H1": "GFTFDDYAHH", "CDR-H2": "GISWNSGSIHYADSVK", "CDR-H3": "VGIGGGYFDY", "log10 Kd, replicates": "4.43 / 4.56 / 5.76", "empty controls": "5 of 9 (4.70)"}
{"CDR-H1": "GFTFDDYAYD", "CDR-H2": "GISWNSGSIGYADSYK", "CDR-H3": "VGRGGGYFDY", "log10 Kd, replicates": "ND / ND / ND", "empty controls": "0 of 9"}
{"CDR-H1": "GFTFLDIAMH", "CDR-H2": "GISWNSGSIGYADSVK", "CDR-H3": "HGRGGGYFDY", "log10 Kd, replicates": "ND / ND / ND", "empty controls": "0 of 9"}
{"CDR-H1": "GFTFDDYYMH", "CDR-H2": "GISWNSGSIGYADSKK", "CDR-H3": "VGRGGGYFDY", "log10 Kd, replicates": "ND / ND / ND", "empty controls": "0 of 9"}
{"CDR-H1": "GFTFDDDAMH", "CDR-H2": "GISWNSGSIGYASSVK", "CDR-H3": "VGRQGGYFDY", "log10 Kd, replicates": "ND / ND / ND", "empty controls": "3 of 9 (4.64)"}
{"CDR-H1": "GFTFDGYAMH", "CDR-H2": "GISWNSGSIGYADVVK", "CDR-H3": "VGRGGGHFDY", "log10 Kd, replicates": "ND / ND / ND", "empty controls": "0 of 9"}